Broadly, the IC50 is the point on the concentration scale where inhibition reaches its midpoint.

The test addresses human HSP90a (recombinant N-terminal nucleotide binding domain) (Homo sapiens (Human), UniProt P07900). Put plainly: Competition fluorescence polarization binding assay with TSD-FP probe. As to conditions: read-out: Binding Affinity IC50; method of Example A-1; incubation time not stated. For orientation: Fluorescence polarisation rises when a labelled molecule tumbles more slowly, as on binding a larger partner.

Turning to `COc1cccc(-c2cc(F)ccc2[C@H]2Cc3nc(N)nc(C)c3/C(=N/OCCC[C@H](O)CO)N2)n1` [Compound 75, (R,Z)-2-amino-7-(4-fluoro-2-(6-methoxypyridin-2-yl)phenyl)-4-methyl-7,8-dihydropyridol[4,3-d]pyrimidin-5(6H)-one O—(S)-4,5-dihydroxypentyl oxime], the IC50 was 10 nM. Under `COc1cccc(-c2cc(F)ccc2[C@H]2Cc3nc(N)nc(C)c3/C(=N/OC[C@H]3COCCO3)N2)n1` [Compound 40, (R,Z)-2-Amino-7-(4-fluoro-2-(6-methoxypyridin-2-yl)phenyl)-4-methyl-7,8-dihydropyrido[4,3-d]pyrimidin-5(6H)-one O—((R)-1,4-dioxan-2-yl)methyl oxime] stands 10 nM.

The record behind these values is patent US8618290B2 (dated 2013).
